Source: ChEMBL document CHEMBL5108045, “Identification and Utilization of a Chemical Probe to Interrogate the Roles of PIKfyve in the Lifecycle of β-Coronaviruses” (J Med Chem, 2022)

Sequences of proteins named here, by UniProt entry; tags and fusion partners are left off. A change or cut given only in a name is not applied to a line headed by its entry.
UniProt Q9Y2I7: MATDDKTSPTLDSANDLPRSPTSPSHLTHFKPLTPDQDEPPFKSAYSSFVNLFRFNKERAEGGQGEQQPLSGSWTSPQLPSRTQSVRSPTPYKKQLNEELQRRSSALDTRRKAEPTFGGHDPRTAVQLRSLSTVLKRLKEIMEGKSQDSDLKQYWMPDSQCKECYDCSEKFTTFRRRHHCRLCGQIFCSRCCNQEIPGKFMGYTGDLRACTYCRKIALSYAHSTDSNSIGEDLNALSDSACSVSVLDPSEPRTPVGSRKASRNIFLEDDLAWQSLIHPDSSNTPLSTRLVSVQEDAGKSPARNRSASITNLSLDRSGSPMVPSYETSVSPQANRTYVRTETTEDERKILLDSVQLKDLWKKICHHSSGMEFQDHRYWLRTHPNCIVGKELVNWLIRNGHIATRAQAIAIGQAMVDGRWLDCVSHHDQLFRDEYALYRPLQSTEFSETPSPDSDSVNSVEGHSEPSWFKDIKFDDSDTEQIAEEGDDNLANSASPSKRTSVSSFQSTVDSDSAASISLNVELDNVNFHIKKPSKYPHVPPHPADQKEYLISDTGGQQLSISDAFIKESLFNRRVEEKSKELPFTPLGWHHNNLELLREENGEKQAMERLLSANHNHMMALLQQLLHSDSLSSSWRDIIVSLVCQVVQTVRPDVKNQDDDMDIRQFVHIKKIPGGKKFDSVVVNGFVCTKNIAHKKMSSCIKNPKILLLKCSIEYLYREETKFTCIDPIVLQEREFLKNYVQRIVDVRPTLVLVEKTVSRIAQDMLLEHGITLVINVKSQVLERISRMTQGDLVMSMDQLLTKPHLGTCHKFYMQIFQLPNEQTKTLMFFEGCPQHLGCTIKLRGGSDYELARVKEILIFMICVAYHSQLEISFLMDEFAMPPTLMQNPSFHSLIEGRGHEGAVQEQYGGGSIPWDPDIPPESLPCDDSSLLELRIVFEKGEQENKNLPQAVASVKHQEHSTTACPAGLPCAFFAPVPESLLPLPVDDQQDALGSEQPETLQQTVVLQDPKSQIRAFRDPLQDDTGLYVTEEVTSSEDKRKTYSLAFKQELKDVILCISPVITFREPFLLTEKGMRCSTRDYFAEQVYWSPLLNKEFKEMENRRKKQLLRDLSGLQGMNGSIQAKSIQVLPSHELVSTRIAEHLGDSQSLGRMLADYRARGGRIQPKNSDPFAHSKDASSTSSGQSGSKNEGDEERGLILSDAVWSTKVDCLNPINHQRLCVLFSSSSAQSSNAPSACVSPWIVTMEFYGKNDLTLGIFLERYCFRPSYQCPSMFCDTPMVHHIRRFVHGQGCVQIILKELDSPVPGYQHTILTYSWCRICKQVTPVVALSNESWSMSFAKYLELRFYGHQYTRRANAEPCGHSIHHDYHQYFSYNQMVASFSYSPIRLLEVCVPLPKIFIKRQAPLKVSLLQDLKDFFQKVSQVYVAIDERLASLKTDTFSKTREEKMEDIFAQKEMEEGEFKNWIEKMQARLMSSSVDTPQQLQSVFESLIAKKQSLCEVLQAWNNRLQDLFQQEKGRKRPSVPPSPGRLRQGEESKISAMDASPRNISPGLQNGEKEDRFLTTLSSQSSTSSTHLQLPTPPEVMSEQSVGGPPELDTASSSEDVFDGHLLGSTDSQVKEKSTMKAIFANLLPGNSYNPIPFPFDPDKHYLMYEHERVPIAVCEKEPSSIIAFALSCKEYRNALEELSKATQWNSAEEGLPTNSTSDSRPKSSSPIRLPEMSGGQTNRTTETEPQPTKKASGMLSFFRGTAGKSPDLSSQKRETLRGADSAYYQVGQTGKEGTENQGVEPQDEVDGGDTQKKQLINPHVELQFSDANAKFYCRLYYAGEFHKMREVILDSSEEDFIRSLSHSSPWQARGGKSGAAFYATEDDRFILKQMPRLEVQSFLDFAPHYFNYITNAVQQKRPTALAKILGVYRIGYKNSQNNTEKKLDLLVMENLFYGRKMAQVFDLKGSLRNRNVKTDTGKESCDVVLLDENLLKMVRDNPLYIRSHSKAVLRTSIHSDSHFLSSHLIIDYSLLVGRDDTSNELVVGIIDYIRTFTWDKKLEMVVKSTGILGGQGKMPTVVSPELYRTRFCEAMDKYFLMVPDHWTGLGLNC

Columns and labels:
[1] = target: T1, 1-phosphatidylinositol 3-phosphate 5-kinase (Homo sapiens, UniProt Q9Y2I7); assay: Inhibition of human GST tagged PIKFYVE (1493 to end residues) expressed in baculovirus-infected Sf9 cells using PI(3)P:PS as substrate incubated for 60 mins in presence of ATP by ADP-Glo assay
[2] = target: T1, 1-phosphatidylinositol 3-phosphate 5-kinase; assay: Inhibition of PIKFYVE in HEK293 cells by NanoBRET assay; format: cell-based

Nc1ncc2c(n1)-c1c([nH]c3ccc(C4CC4)cc13)CCCC2
IC50 [1]: 720 nM | IC50 [2]: > 10000 nM
